Reference: patent US20050054531A1, “N-(phosphonomethyl) glycine (glyphosate) salt, a preparation process thereof, a concentrate composition and a phytotoxic formulation comprising it, and a method to combat weeds in a crop with a formulation thereto” (priority 2003, published 2005)

Assay: Physical properties of the salt (solubility, pH of solution)
Type: physicochemical
Conditions: 10% w/w in water

Q: For “1H-1,2,4-triazole-3-yl-amine N-(phosphonomethyl)-glycine salt [Glyphosate triazolamine salt]”, which “pH of the aqueous 10% w/w solution of the salt” value is on record?
A: The value was 3.2.
